Experimental findings from US20250057893A1, “PHARMACEUTICAL COMPOSITION FOR PREVENTING OR TREATING CANCER OR INFLAMMATORY DISEASE” (ENTEROBIOME INC., priority 2021, published 2025) are described below.

Converted amounts (≈) assume the structure as drawn.

This assay has as its system Bacteroides thetiotaomicron ATCC 29741. The assay is described as follows: Antimicrobial susceptibility, broth microdilution MIC (CLSI), QC strain. Particulars: ATCC29741 / ATCC297415, read-out: MIC, QC ATCC 297415.

Broadly, the MIC is the lowest concentration that inhibits growth of the organism. Take `CCC[C@@H]1C[C@@H](C(=O)N[C@@H]([C@H]2O[C@H](SC)[C@H](O)[C@@H](O)[C@H]2O)[C@H](C)Cl)N(C)C1` [CLI, clindamycin]: the MIC is 4 µg/mL (≈ 9.41 µM).
